pIC50: −log10 of the molar value.
Target: PIK3CB (Human) (UniProt P42338)
Conditions: platelet

Protein sequences, listed by entry. Tags and fused reporters are not part of them. Lines headed by an entry give the natural chain unless they say otherwise; changes in a name come on top.
UniProt P42338: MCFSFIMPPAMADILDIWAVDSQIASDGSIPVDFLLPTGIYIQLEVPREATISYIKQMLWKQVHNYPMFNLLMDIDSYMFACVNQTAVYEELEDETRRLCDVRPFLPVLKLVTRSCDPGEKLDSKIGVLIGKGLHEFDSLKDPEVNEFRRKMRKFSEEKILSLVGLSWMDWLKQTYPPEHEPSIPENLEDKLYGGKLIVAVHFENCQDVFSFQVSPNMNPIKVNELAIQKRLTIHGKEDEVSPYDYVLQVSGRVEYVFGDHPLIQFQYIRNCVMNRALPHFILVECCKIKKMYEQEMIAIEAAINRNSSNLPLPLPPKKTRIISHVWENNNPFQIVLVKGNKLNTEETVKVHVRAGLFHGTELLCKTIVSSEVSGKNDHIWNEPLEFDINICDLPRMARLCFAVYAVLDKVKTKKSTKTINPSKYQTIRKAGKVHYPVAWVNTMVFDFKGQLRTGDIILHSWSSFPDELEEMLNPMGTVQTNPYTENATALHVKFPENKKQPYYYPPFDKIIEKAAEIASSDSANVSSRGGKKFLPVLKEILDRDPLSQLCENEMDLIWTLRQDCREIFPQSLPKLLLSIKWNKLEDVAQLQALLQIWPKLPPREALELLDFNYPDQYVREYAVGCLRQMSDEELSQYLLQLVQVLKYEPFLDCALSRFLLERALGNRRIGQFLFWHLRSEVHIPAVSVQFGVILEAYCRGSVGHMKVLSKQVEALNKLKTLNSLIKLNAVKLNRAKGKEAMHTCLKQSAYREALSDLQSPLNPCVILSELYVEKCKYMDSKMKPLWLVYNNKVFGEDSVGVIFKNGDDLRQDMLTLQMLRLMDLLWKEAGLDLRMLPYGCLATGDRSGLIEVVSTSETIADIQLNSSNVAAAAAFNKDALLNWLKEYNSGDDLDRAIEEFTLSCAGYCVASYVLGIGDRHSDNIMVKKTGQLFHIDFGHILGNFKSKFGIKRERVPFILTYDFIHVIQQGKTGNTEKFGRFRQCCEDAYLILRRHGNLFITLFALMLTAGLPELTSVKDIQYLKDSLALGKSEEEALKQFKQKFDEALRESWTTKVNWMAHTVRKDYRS

pIC50: 7.00 to 7.30
Structure (SMILES): Cc1cc(C(C)Nc2ccccc2)c2nc(N3CCOCC3)cc(=O)n2c1 (stereo unspecified)
